Data published in US8716309B2, “Pharmaceutical composition comprising pyridone derivatives” (priority 2011, dated 2014).

Amino acid sequences for entries named in this document (tags omitted). Residues count along the entry.
UniProt P36544, 23-502 limits assumed: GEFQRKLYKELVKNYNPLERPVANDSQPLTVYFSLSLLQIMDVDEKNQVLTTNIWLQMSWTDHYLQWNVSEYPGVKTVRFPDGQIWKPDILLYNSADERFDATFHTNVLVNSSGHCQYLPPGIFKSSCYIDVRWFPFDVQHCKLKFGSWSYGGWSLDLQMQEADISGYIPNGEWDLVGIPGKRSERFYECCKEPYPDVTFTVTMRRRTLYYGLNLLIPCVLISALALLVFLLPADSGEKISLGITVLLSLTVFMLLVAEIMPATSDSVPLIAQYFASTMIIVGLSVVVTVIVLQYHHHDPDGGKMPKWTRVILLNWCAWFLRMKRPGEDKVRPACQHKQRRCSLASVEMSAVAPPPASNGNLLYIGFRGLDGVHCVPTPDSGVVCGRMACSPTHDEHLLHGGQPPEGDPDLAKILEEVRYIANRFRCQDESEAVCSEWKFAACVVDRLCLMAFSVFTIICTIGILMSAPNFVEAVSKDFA

Biological target: human α7 nAChR (Homo sapiens, UniProt P36544)
Experiment: FlexStation-Ca2+ influx assay, human α7 nAChR activity
Type: cell-based
Settings: read-out: EC50 of human α7nAChR; HEK293T/17 cells transfected with human α7 nAChR; PNU-120596 added; relative to epibatidine 1 μM positive control

`O=C(OC1CN2CCC1CC2)c1ccc(=O)n(-c2ccccc2)c1` (stereo not shown) gave an EC50 of over 1 µM.
